# Measurements from published antibiotic growth screens (doi:10.1038/s41589-023-01349-8).
# This is one part of the list.
# System: A. baumannii ATCC 17978
# Experiment: relative growth (fraction of control); higher = less inhibition
# Conditions: 50 µM
row,Compound,relative growth
1,Cc1ccc2c(c1)C(=O)C[C@@H](c1ccc(Cl)cc1Cl)O2,1.12
2,C[C@]12C=CC(=O)C=C1CC[C@@H]1[C@@H]2[C@@H](O)C[C@@]2(C)[C@H]1CC[C@]2(O)C(=O)COC(=O)c1ccc(CO[N+](=O)[O-])cc1,1.02
3,Cc1cc(C(=O)N2CCNC(=O)C2(C)C)no1,0.933
4,CS(=O)(=O)O.Oc1ccc(C2CNCCc3c2cc(O)c(O)c3Cl)cc1 (stereo not drawn),1.03
5,COc1cc2ccc(=O)oc2c(O[C@H]2O[C@@H](CO)[C@@H](O)[C@@H](O)[C@@H]2O)c1O,1.08
6,CO[C@H]1CN(C)C(=O)c2cc(NC(=O)C3CC3)ccc2OC[C@@H](C)N(C(=O)Cc2ccccn2)C[C@H]1C,1.03
7,O=c1c(O)c(-c2ccccc2)oc2ccccc12,0.963
8,C[C@@H](NC(=O)C[C@H]1C=C[C@H](NC(=O)CN2CCOCC2)[C@@H](CO)O1)c1ccccc1,1.11
9,Nc1ccc(NC(=O)CCN2CCOCC2)cc1,0.973
10,CCN[C@@H]1C[C@H](N)[C@@H](O[C@H]2OC(CN)=CC[C@H]2N)[C@H](O)[C@H]1OC1OC[C@](C)(O)[C@H](NC)[C@H]1O.O=S(=O)(O)O.O=S(=O)(O)O (stereo partly drawn),1.17
11,C[C@@H]1CN([C@@H](C)CO)C(=O)CCCn2nncc2CO[C@H]1CN(C)Cc1cccc2c1OCCCO2,1.15
12,COc1cccc(S(=O)(=O)Nc2ccc3c(c2)[C@@H]2C[C@H](CC(=O)NCC(F)(F)F)O[C@@H](CO)[C@@H]2O3)c1,0.976
13,O=C1CC[C@@H](C(=O)O)N1,0.993
14,COCCNC(=O)C[C@@H]1CC[C@@H]2[C@H](COC[C@H](O)CN2S(=O)(=O)c2ccccc2C)O1,0.952
15,CC(=O)N1CCN(c2ccc(OCC3CO[C@](Cn4ccnc4)(c4ccc(Cl)cc4Cl)O3)cc2)CC1 (stereo partly drawn),0.746
16,O=C(NCCCn1ccnc1)C(=O)NC[C@H]1OCCN1S(=O)(=O)c1ccc(F)cc1,1.01
17,O=C(CN1CCOCC1)N[C@@H]1CC[C@H](CCNS(=O)(=O)c2ccccc2F)O[C@@H]1CO,1.14
18,O=C(O)CCCNC(=O)c1cncc(O)c1,1.13
19,COc1cccc(NC(=O)N2C[C@@H](O)COC[C@@H]3O[C@@H](CC(=O)NCCCN4CCOCC4)CC[C@H]32)c1,0.953
20,CN(C)Cc1cn(CC[C@H]2CC[C@@H](NC(=O)Cc3cccnc3)[C@H](CO)O2)nn1,0.937
21,CCOc1ccccc1C(N)=O,0.967
22,CN(C)c1ccc2nc3ccc(N(C)C)cc3[s+]c2c1.O.[Cl-],1.18

row,Compound,relative growth
1,O=C(NCCCN1CCOCC1)c1cccnc1,1.06
2,Cc1ccc2nc(Nc3ccccc3)nc(-c3ccccc3)c2c1,1.22
3,O=C(C[C@@H]1CC[C@@H]2[C@H](COC[C@H](O)CN2S(=O)(=O)c2ccccc2)O1)NCCN1CCCC1,0.942
4,CN1C=C(C(=O)OCCS(C)(=O)=O)C(C(=O)OCCS(C)(=O)=O)=CC(CCCO)=C[C@@H]1C1CC1,1.08
5,CCC(=O)NO,0.914
6,CC(C)(C)c1ccc(OC[C@@H](O)CN)cc1,0.768
7,O=C(C[C@H]1C=C[C@@H](NC(=O)CN2CCOCC2)[C@@H](CO)O1)NCCc1ccncc1,1.02
8,NS(=O)(=O)c1ccc(C(=O)O)cc1,0.949
9,O=C(C[C@@H]1CC[C@H]2[C@@H](COC[C@@H](O)CN2S(=O)(=O)c2ccccc2)O1)NCc1ccc2c(c1)OCO2,1.02
10,O=C(C[C@H]1CC[C@@H]2[C@H](COC[C@@H](O)CN2S(=O)(=O)c2ccc(Cl)cc2)O1)N[C@H]1CCN(Cc2ccccc2)C1,1.04
11,COc1ccc(S(=O)(=O)N[C@@H]2C=C[C@@H](CC(=O)N3CCN(c4ccccc4)CC3)O[C@H]2CO)cc1,1.08
12,CN1CCC(=C2c3ccccc3Sc3ccccc32)CC1.O=C(O)/C=C\C(=O)O,0.789
13,COc1cc2c3cc1Oc1cc(ccc1O)C[C@@H]1c4c(cc(OC)c(O)c4Oc4ccc(cc4)C[C@@H]3N(C)CC2)CC[N+]1(C)C.Cl.O.O.O.O.O.[Cl-],1.14
14,CCn1cc(C(=O)O)c(=O)c2cc(F)c(N3CCNC(C)C3)c(F)c21.Cl (stereo not drawn),0.166
15,C[C@@H]1CC[C@]2(C(=O)O)CC[C@]3(C)C(=CCC4[C@@]5(C)CC[C@H](O)C(C)(C)C5CC[C@]43C)C2[C@H]1C (stereo partly drawn),1.13
16,CCNC1CN(CCCOC)S(=O)(=O)c2sc(S(N)(=O)=O)cc21 (stereo not drawn),1.26
17,C=C1CCOC(=O)[C@@H](NC(C)=O)CCCN(O)C(=O)/C=C(\C)CCOC(=O)[C@H](NC(C)=O)CCCN(O)C(=O)/C=C(\C)CCOC(=O)[C@@H](NC(C)=O)CCCN(O)C(=O)C1,0.947
18,O=C(C[C@H]1CC[C@@H](NC(=O)CN2CCOCC2)[C@H](CO)O1)NCCc1ccccc1,0.988
19,C=CCOC1=N[C@@H]2[C@@H](C(=O)N(C)C(=O)N2C)N1C,1.01
20,Cc1nc(C)c(Cl)c(O)c1Cl,0.83
21,C=C/C=C/[C@@H]1C(=C)CN([C@@H](Cc2ccccc2)C(=O)OC)[C@H]1[C@@H](O)CCn1cc(CCC(=O)NO)nn1,1.26
